Values of other authors in patent US20150376254A1, “GAMMA-MSH ANALOGUES” (TXP Pharma GmbH, priority 2014, published 2015).

By UniProt entry, the sequences of proteins in these tests, tags left out.
UniProt P32245, whole entry: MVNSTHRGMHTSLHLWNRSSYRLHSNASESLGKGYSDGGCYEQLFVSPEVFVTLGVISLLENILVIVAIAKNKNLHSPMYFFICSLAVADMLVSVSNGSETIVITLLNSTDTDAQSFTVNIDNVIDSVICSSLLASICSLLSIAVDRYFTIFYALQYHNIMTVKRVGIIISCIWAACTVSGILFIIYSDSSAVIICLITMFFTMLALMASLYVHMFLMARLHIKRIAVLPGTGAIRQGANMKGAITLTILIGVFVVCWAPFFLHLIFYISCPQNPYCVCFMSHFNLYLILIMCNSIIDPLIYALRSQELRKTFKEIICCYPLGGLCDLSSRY

Biological target: MC4r (Homo sapiens, UniProt P32245)
Settings: relative to MC1r and MC5r; J. Med. Chem. 2005, 48, 1839-1848

γ-MSH
binding to the MC4r: somewhat better
